This is an account of results in patent US8541588B2 (dated 2013).

By UniProt entry, the sequences of proteins in these tests, tags left out.
UniProt Q15858, whole entry: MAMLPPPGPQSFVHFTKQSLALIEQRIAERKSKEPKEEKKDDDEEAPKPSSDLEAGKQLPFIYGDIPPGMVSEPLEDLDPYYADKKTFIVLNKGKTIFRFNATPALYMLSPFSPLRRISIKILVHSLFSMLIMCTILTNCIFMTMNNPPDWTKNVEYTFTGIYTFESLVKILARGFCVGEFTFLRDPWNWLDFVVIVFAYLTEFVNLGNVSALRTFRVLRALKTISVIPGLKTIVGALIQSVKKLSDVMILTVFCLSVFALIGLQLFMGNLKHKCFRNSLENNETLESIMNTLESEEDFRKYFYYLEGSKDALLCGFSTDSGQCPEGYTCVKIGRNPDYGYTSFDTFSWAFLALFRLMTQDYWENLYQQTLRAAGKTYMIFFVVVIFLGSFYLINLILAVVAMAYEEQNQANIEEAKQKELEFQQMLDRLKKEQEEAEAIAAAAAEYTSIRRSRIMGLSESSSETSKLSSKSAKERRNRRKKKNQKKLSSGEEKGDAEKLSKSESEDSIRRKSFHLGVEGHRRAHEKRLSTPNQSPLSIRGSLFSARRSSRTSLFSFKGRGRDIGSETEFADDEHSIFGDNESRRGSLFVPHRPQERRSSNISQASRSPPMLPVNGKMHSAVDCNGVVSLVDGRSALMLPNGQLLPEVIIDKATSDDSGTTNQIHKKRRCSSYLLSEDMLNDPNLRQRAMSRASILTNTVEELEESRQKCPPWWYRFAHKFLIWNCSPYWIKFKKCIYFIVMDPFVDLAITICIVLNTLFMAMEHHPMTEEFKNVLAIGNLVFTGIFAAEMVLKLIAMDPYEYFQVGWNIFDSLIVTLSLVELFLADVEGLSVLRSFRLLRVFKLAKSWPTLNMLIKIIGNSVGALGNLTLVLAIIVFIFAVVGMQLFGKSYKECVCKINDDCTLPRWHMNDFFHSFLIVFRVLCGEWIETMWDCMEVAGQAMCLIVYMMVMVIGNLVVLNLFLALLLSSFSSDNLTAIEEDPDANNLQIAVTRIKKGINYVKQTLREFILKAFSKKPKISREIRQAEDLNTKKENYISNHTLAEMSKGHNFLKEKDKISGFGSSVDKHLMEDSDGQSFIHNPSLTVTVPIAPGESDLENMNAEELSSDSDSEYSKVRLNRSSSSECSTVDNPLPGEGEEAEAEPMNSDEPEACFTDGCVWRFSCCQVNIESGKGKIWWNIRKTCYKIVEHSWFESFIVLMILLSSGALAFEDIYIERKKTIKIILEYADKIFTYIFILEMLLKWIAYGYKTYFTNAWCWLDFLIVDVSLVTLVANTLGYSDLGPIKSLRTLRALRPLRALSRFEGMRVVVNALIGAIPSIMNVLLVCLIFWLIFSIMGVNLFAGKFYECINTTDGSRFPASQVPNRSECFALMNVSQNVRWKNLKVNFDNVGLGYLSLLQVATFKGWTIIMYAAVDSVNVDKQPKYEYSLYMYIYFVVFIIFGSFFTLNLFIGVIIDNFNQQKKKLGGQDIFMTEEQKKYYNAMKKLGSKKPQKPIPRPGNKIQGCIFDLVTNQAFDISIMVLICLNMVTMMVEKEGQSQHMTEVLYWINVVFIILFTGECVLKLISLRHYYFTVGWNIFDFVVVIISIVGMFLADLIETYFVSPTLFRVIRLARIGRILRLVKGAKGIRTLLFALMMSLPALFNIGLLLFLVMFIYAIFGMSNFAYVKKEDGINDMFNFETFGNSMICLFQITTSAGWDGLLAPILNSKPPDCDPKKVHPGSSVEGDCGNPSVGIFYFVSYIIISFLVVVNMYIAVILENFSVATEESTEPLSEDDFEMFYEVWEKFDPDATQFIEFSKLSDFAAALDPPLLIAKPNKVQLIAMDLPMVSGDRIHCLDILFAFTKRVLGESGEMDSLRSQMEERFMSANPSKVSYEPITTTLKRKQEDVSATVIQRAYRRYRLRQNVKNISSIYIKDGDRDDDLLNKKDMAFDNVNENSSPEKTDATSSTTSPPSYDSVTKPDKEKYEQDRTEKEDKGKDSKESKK

The target in this assay is Nav1.7 (or SCN9A) channel; HEK cells stably transfected with hSCN9A (Homo sapiens, UniProt Q15858). The experiment in a line: Nav1.7 block, PatchXpress 7000 automated whole-cell voltage clamp, estimated IC50 (EIC50). The conditions noted are these: read-out: SCN9A EIC50, PatchXpress platform, Examples 283-814.

With `N#Cc1cc(S(=O)(=O)Nc2ncns2)ccc1Oc1ccc(C(F)(F)F)cc1-c1cn[nH]c1` [Example 438], the IC50 was 17 nM.
